Data on one compound can be found in US8357695B2, “Hydrates of 2-chloro-5-[3,6-dihydro-3-methyl-2,6-dioxo-4-(trifluoromethyl)-1-(2H)-pyrimidinyl]-4-fluoro-N-[[methyl(1-methylethyl)amino]sulfonyl]benzamide” (BASF SE, priority 2006, dated 2013).

“Also recorded” adds a separate entry of the source.

This assay relates to test plants. Nature of the assay: greenhouse experiments, overall comparison with form I. The assay is classed as in vivo. The following applies: greenhouse tests, overall conclusion in words. The source says:
The test period extended over 2 to 4 weeks.
The suspension concentrates had the following composition: […]

With `CC(C)N(C)S(=O)(=O)NC(=O)c1cc(-n2c(=O)cc(C(F)(F)F)n(C)c2=O)c(F)cc1Cl` (single isomer, unassigned) [Form III, 2-chloro-5-[3,6-dihydro-3-methyl-2,6-dioxo-4-(trifluoromethyl)-1-(2H)-pyrimidinyl]-4-fluoro-N-[[methyl(1-methylethyl)amino]sulfonyl]benzamide], the “herbicidal activity in comparison with form I” value was “superior to the former in terms of activity; also recorded: markedly improved herbicidal activity”.
